Test system: colorectal mucosa (epithelial tissue of the human colon reconstructed in 3D)
Procedure: The trial was conducted according to the OCSE TG 428-EU approved method used for percutaneous penetration.
Like in the first trial, the test was conducted at 37° C. and relative humidity >90%.
Like in the first phase, the test was conducted at 37° C. and relative humidity >90%.

- formation of the acid form BMP: very low amounts
Substance: beclomethasone acid [BMP]

Reference: patent US20210268004A1, “COMPOSITION CONTAINING BECLOMETHASONE FOR THE PREVENTION AND THE TREATMENT OF BACTERIAL PROSTATITIS AND VAGINITIS” (SOFAR S.P.A., priority 2018, published 2021)
